Here are results for one compound from patent publication US20240285589A1, “TREATMENT USING AN ANTIVIRAL COMPOUND AND NITAZOXANIDE” (priority 2021, published 2024).

The subject of the assay is Epstein-Barr virus and Herpes 1 virus. Nature of the assay: Case Study 6: person with severe depression, IBS, brain fog, fatigue, headaches, SPECT. The format is in vivo, human. The note with it: patient history before antiviral treatment. From the text:
Scale illustrates levels of perfusion in a different manner from FIG. 1. The dark grey central portion of the scale illustrates statistically normal perfusion in a given area relative to a normative database. Areas of progressively lighter grey to white illustrate areas which are 2 standard deviation (SD), 3 SD, and 4 SD below the mean of the normative database, respectively.
A person presented with a history of depression since their teen years. They were severely depressed upon presentation (Quick Inventory of Depressive Symptomatology scale 26/27) and spent most of their time in their bedroom in the basement of their parent's house. They had withdrawn from college and had never held a full-time job. Their condition was complicated by irritable bowel syndrome, brain fog, pervasive fatigue, and headaches. […] The patient also underwent a functional brain scan (single photon emission computed tomography—SPECT). […] The patient was started on the antiviral valacyclovir at 1000 mg two times per day orally. […] NTZ was added at a dose of 500 mg two times per day orally. After one month, the dose of NTZ was increased to 1000 mg two times per day orally.

Structures are written as SMILES.

For the compound `CNC1(c2ccccc2Cl)CCCCC1=O` (stereo not shown) [ketamine], the “response of depression to earlier therapy” value is given as “failed to respond”.
